Test system: arterial and venous systems
Experiment: Effects on the arterial and venous systems in anesthetized open-chest dogs
Assay type: in vivo, mongrel dogs
Settings: for Max. change in mean blood pressure at diastole, Aortic / Max. change in mean blood pressure at diastole, Pulmonary: anesthetized open-chest dogs
Method: Effects on the arterial and venous systems in anesthetized open-chest dogs
Mongrel dogs of either sex, weighing 12-16 kg were subjected to inhalation anesthesia with enflurane under artificial respiration. The dogs were subjected to thoracotomy through the fourth right intercostal wall and catheters were inserted into the thoracic aorta and right pulmonary artery. The aortic and pulmonary blood pressures were measured by means of cathether tip-type piezoelectric transducers.
Test compounds were cumulatively administered with intervals of 30 minutes either intravenously or intraduodenally through catheters placed in the left femoral vein and duodenum.

## O=[N+]([O-])O[C@H]1CO[C@H]2[C@@H]1OC[C@H]2O[N+](=O)[O-]
i.d, 30 μg/Kg
  Max. change in mean blood pressure at diastole, Aortic: -5 mm/Hg
  Max. change in mean blood pressure at diastole, Pulmonary: -0.7 mm/Hg
i.d, 100 μg/Kg
  Max. change in mean blood pressure at diastole, Aortic: -6.7 mm/Hg
  Max. change in mean blood pressure at diastole, Pulmonary: -0.7 mm/Hg
i.d, 300 μg/Kg
  Max. change in mean blood pressure at diastole, Aortic: -5.8 mm/Hg
  Max. change in mean blood pressure at diastole, Pulmonary: -1.7 mm/Hg
i.v, 30 μg/Kg
  Max. change in mean blood pressure at diastole, Aortic: -2 mm/Hg
  Max. change in mean blood pressure at diastole, Pulmonary: -2.5 mm/Hg
i.v, 100 μg/Kg
  Max. change in mean blood pressure at diastole, Aortic: 0 mm/Hg
  Max. change in mean blood pressure at diastole, Pulmonary: -2.8 mm/Hg
i.v, 300 μg/Kg
  Max. change in mean blood pressure at diastole, Aortic: -6 mm/Hg
  Max. change in mean blood pressure at diastole, Pulmonary: -3.8 mm/Hg
intravenous, dogs, dose-range 30 times larger than that of compound A
  effect on the aortic pressure: minimum

From patent US4794118A, “1,4-benzodioxane derivatives” (Eisai Co., Ltd., priority 1985, dated 1988)
